Measured values from patent US20160215111A1, “MATERIALS AND METHODS” (THE UNIVERSITY OF SYDNEY, priority 2013, published 2016).

Tested on: Human dermal fibroblasts
Conditions: allylamine vapor treated PIII PTFE, no protein, over the durations of cell attachment analysis

C=CCN [allylamine]
toxicity to cells of allylamine treatment of the surface: non-toxic to cells
